From article PMC12260524, “Identification of a VPS29 isoform with restricted association to Retriever and Retromer accessory proteins through autoinhibition” (Proceedings of the National Academy of Sciences of the …, 2025)

Target: VPS35 (recombinant) (human) (UniProt Q96QK1)
Assay: mass photometry; purified VPS29C-containing Retromer at 50 to 100 nM in protein buffer (50 mM Tris-HCl pH 7.5, 200 mM NaCl, 2 mM β-mercaptoethanol), Refeyn OneMP

- stoichiometry N: 1
Substance: VPS29C (recombinant, subunit of the VPS29C-containing Retromer) (from UniProt F8VXU5 1-214) (natural protein)
